Here are results for 33 compounds from PubChem BioAssay AID1259399 (Fisher Drug Discovery Resource Center, 2018).

Sequences of proteins named here, by UniProt entry; tags and fusion partners are left off.
UniProt Q8C6L5, whole entry, looked up: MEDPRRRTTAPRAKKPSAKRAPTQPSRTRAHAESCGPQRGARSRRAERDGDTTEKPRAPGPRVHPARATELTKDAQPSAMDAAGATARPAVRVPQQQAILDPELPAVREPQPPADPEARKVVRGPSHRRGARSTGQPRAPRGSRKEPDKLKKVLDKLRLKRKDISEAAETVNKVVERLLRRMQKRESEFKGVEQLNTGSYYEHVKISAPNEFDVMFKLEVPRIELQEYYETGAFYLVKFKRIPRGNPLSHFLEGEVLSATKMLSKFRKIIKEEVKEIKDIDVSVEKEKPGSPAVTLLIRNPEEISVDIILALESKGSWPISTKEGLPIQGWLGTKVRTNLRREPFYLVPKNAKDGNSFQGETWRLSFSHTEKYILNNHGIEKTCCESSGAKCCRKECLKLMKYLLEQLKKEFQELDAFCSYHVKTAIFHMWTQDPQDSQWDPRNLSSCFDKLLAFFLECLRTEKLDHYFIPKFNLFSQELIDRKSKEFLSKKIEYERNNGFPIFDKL

Molecules are shown by their SMILES. Values joined by “and” are separate entries in the source; they are usually repeats but may differ in a detail not shown here. Equal entries are not always repeated. The entries are a selection whose mix differs from that of the whole data set. Active and inactive are the calls of the source. Rule as the data show it: active = inhibition above about 40%; inactive = the rest.

The assay has as its target Cyclic GMP-AMP synthase (Mus musculus) (UniProt Q8C6L5). The assay can be described thus: cyclic GMP-AMP synthase inhibitors, mouse, primary biochemical chemiluminescence (AID 1259399).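 Also: 0% = negative control wells and 100% = reference inhibitor with no enzyme activity.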 As to conditions: recombinant cGAS, Kinase-Glo ATP depletion luminescence; at 12.5 µM; stronger effect = higher value. On the technique in general: Kinase-Glo reads ATP consumption through a luciferase reaction.
The inhibition is the drop in the measured response relative to a control, in per cent. On to `BrC1CSc2nc3ccccc3n2C1c1ccccc1` (stereo not drawn), for which the inhibition is inactive: -1.45%.

For `O=[N+]([O-])c1ccc(-c2csc(NP3(=O)C=C(c4ccccc4)OC(c4ccccc4)=C3)n2)cc1`, the inhibition was inactive: -7.35%.

Turning to `CN1CC(=O)NC1=NP(=O)(OCc1ccccc1)OCc1ccccc1`, the inhibition was inactive: -4.15%. `CN(CCCl)Cc1cc(Cl)c(NC2=NCCN2)c(Cl)c1`: the inhibition was inactive: -3.11%. On to `ClCCNC1C2CC3CC(C2)CC1C3` (stereo not drawn), for which the inhibition is inactive: -3.42%. The figure for `CN(C(=O)Cc1ccc(Cl)c(Cl)c1)[C@@H]1CC[C@]2(CCCO2)C[C@H]1N1CCCC1` is inactive: -4.06%; for `COc1cc(-n2cnnn2)ccc1-n1cnnn1` it is inactive: -2.31%. On to `O=P(Nc1nccs1)(c1ccccc1)c1nc2ccccc2s1` (stereo not drawn), for which the inhibition is inactive: 0.949%. In the case of `COc1cccc(OP(=NC(=S)N2CCOCC2)(C(C)(C)C)C(C)(C)C)c1`, the inhibition was inactive: -3.66%. For `CN(C(=O)Cc1ccccc1)[C@@H]1CC[C@]2(CCCO2)C[C@H]1N1CCCC1`, the inhibition was inactive: -3.61%.

Consider `CCOP1(=S)c2c(C)nn(-c3ccccc3)c2N=C(c2ccc(F)cc2)N1C` (stereo not drawn), for which the inhibition is inactive: -8.04%. The figure for `N#CCOC(=O)C(O)(c1ccccc1)c1ccccc1` is inactive: -1.17%. Consider `O=P1(Nc2nc(-c3ccccc3)cs2)C=C(c2ccccc2)OC(c2ccccc2)=C1`, for which the inhibition was inactive: -4.22%. Under `Nc1nonc1OCCOc1nonc1N` stands inactive: -1.88%; under `CCCOP(=O)(OCCC)O/C(C)=C/SC#N`, inactive: -6.98%; under `N#Cc1ccc(-c2csc(NP3(=O)C=C(c4ccccc4)OC(c4ccccc4)=C3)n2)cc1`, inactive: -5.74%. The figure for `O=P(Nc1nccs1)(c1ccc(Br)cc1)c1ccc(Br)cc1` is inactive: -2.06%. For the compound `CCOP1(=S)c2c(C)nn(-c3ccccc3)c2N=C(c2ccccc2F)N1C` (stereo not drawn), the inhibition was inactive: -7.32%. The figure for `Cc1ccc(NC(=O)COC(=O)C(C)(O)c2cccc(F)c2)c(C)c1` (stereo not drawn) is inactive: -10.4%. `CCN(CC)C1=NP(=O)(c2ccccc2)NC(c2ccccc2)=C1C#N` (stereo not drawn): the inhibition is inactive: -5.93%. As to `Cc1c2non([O-])c-2c(C)[n+](=O)[n+]1[O-]`, the inhibition is inactive: -6.94%. Under `O=P(O)(O)F` stands inactive: -3.47%. Regarding `COP1(=S)c2c(C)nn(-c3ccccc3)c2N=C(c2ccc(F)cc2)N1C` (stereo not drawn), the inhibition is inactive: -5.55%.

For `COc1cc(Br)c([N+](=O)[O-])nc1[N+](=O)[O-]`, the inhibition was inactive: 22.7%. The figure for `CN(C(=O)Cc1ccc(Cl)c(Cl)c1)[C@H]1CCCC[C@@H]1N1CCCC1` is inactive: -1.19% and inactive: -2.76%; for `O=P(C=C(Cl)c1ccccc1)(C=C(Cl)c1ccccc1)Nc1nncs1` it is inactive: -3.26%; for `CN(C(=O)Cc1ccc(Cl)c(Cl)c1)[C@@H]1CCCC[C@@H]1N1CCCC1` it is inactive: -5.1%. `O=P1(Nc2nncs2)C=C(c2ccccc2)SC(c2ccccc2)=C1`: the inhibition was inactive: -3.55%. `Cc1c([N+](=O)[O-])c([N+](=O)[O-])nn1CC(=O)Nc1ccc([N+](=O)[O-])cc1Cl`: the inhibition was inactive: -8.25%. As for `O=P(Nc1nccs1)(c1ccccc1)c1ccccc1`, the inhibition was inactive: -6.9%. The figure for `O=P1(Nc2nc(-c3ccc(F)cc3)cs2)C=C(c2ccccc2)OC(c2ccccc2)=C1` is inactive: -4.12%. The figure for `BrCC1CN=C(N2CCOCC2)S1` (stereo not drawn) is inactive: -3.33%. `CCOC(=O)NC(Sc1nc2ccccc2o1)C(Cl)(Cl)Cl` (stereo not drawn): the inhibition is inactive: -5.47%.
